Measured affinities in a library of Ab-14 heavy chain variants

All variants were tested on one target, the spike HR2 peptide PDVDLGDISGINAS (SARS-CoV-2).

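Designed CDR sequences, proposed from the first random library and measured here. Several design methods are mixed in this list. In AlphaSeq, yeast of one mating type display the scFv and yeast of the other type display the target. After mating in shaken culture at 30 °C for 16 h, diploids were selected and their barcode pairs sequenced. A regression on co-assayed BCL2-family reference pairs converts the normalised counts of each replicate to an apparent Kd. The assay was run in six technical replicates.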

The variants keep the light chain, the linker and the frameworks of Ab-14 (scFv order VH, a 15-residue (Gly4Ser)3 linker, VL).
VH: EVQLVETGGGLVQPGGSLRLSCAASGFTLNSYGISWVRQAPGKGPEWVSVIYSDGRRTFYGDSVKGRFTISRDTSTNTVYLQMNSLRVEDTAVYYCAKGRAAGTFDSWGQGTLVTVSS
VL: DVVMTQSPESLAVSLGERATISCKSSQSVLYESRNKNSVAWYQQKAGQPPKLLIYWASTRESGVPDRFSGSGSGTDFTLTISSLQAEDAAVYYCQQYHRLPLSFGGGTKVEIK

The parent's heavy chain CDRs are GFTLNSYGIS, VIYSDGRRTFYGDSVK, GRAAGTFDS; each variant's own CDRs replace them letter for letter.
The Kd shown is the geometric mean over detected replicates; a lower Kd is a better binder.
Where no diploid with the target was found in any replicate, the entry reads "nd": below detection, most likely a poor binder, though not proof of it.
Background: pairings of all heavy chain designs with three empty control strains gave a value in 1% of cases (median 120 nM, 5th percentile 7.0 nM). Values in that range, when seen in few replicates, are hard to tell from nonspecific mating. For each scFv, signals with the empty controls are counted beside the result.
The range of this assay differs from that of the first round, and the authors advise against merging the two.
The parent sequence was in this pool as ten entries: three were never detected, three once, and four in most replicates, with averages from 2.2 nM to 240 nM.
The authors' rule: three or more of the six replicates give a measured affinity, fewer mean a poor binder.

{"CDR-H1": "GFDLNEYGIS", "CDR-H2": "VIYADGKRTFYSDSVK", "CDR-H3": "GNAGGTFDI", "Kd (apparent)": "3.0 nM", "detected": "6 of 6", "signal with controls": "0 of 18"}
{"CDR-H1": "GFSLNEYGIS", "CDR-H2": "VIYSDGHRTFYGDSVK", "CDR-H3": "GRTAGTFDS", "Kd (apparent)": "380 pM", "detected": "6 of 6", "signal with controls": "0 of 18"}
{"CDR-H1": "GETLNDYGRS", "CDR-H2": "VIYSDCRRTEYGDSVK", "CDR-H3": "GRAALTFIS", "Kd (apparent)": "nd", "detected": "0 of 6", "signal with controls": "0 of 18"}
{"CDR-H1": "GFQLNEYGIS", "CDR-H2": "VIYSDGRRTFYGDSVK", "CDR-H3": "GRHAGTFIS", "Kd (apparent)": "nd", "detected": "0 of 6", "signal with controls": "0 of 18"}
{"CDR-H1": "GFTLNSYGIS", "CDR-H2": "VIYSNGRRTFYSDSVK", "CDR-H3": "GRAGGTFDI", "Kd (apparent)": "nd", "detected": "0 of 6", "signal with controls": "0 of 18"}
{"CDR-H1": "GFTLNEYGIS", "CDR-H2": "VIYSDGRRTFYGDRVK", "CDR-H3": "MRAAVTFDQ", "Kd (apparent)": "nd", "detected": "0 of 6", "signal with controls": "1 of 18"}
{"CDR-H1": "GFSLDEYGIS", "CDR-H2": "VIYADGLRSKYADKVK", "CDR-H3": "GELTQKGDT", "Kd (apparent)": "nd", "detected": "0 of 6", "signal with controls": "0 of 18"}
{"CDR-H1": "GFDLNEYGIS", "CDR-H2": "VIYADGMRTAYADSVK", "CDR-H3": "GENAGTFDI", "Kd (apparent)": "460 pM", "detected": "6 of 6", "signal with controls": "0 of 18"}
{"CDR-H1": "GFDLNMYGIS", "CDR-H2": "VIYSDGRRTFYGDQVK", "CDR-H3": "GRTAGTFDS", "Kd (apparent)": "nd", "detected": "0 of 6", "signal with controls": "0 of 18"}
{"CDR-H1": "GFDLDEYGIS", "CDR-H2": "VIYADGMRTFYADSVK", "CDR-H3": "GNNAGTFDI", "Kd (apparent)": "1.1 nM", "detected": "6 of 6", "signal with controls": "0 of 18"}
{"CDR-H1": "GFELNSYGIS", "CDR-H2": "VIYSDGRRTFYIDSVK", "CDR-H3": "GNVAGTFDS", "Kd (apparent)": "2.0 nM", "detected": "6 of 6", "signal with controls": "0 of 18"}
{"CDR-H1": "IFTLESYGIS", "CDR-H2": "VIYADGRRTFYGDSVK", "CDR-H3": "GRAAGTFDS", "Kd (apparent)": "7.3 nM", "detected": "1 of 6", "signal with controls": "0 of 18"}
{"CDR-H1": "GFTLNSYGIS", "CDR-H2": "VIYSDGRRTHYGDSVK", "CDR-H3": "GRAAKTFDS", "Kd (apparent)": "nd", "detected": "0 of 6", "signal with controls": "0 of 18"}
{"CDR-H1": "GFSLNSYGIS", "CDR-H2": "VIYSDGRRTFYVDSVK", "CDR-H3": "GRQAGTFDA", "Kd (apparent)": "36 nM", "detected": "6 of 6", "signal with controls": "0 of 18"}
{"CDR-H1": "GFTLNSYGIS", "CDR-H2": "VIYSDGRRTFYSDSVK", "CDR-H3": "GEAAGTFDA", "Kd (apparent)": "3.1 nM", "detected": "6 of 6", "signal with controls": "0 of 18"}
{"CDR-H1": "GFSLNSYGIS", "CDR-H2": "VIYSDGRRTFYADMVK", "CDR-H3": "GRTAGTFDS", "Kd (apparent)": "3.8 nM", "detected": "5 of 6", "signal with controls": "0 of 18"}
{"CDR-H1": "GFTLDSYGIS", "CDR-H2": "VIYSDGRRTFYGDKVK", "CDR-H3": "GRTAGTFDS", "Kd (apparent)": "5.9 nM", "detected": "6 of 6", "signal with controls": "0 of 18"}
{"CDR-H1": "GFDLNSYGIS", "CDR-H2": "VIYSDGRRTFYADSVK", "CDR-H3": "GAAAGTFDS", "Kd (apparent)": "1.2 nM", "detected": "6 of 6", "signal with controls": "0 of 18"}
{"CDR-H1": "GFTLESYGIS", "CDR-H2": "VIYSDGKRTFYGDSVK", "CDR-H3": "GKAAGTFDS", "Kd (apparent)": "5.7 nM", "detected": "5 of 6", "signal with controls": "1 of 18"}
{"CDR-H1": "GFNLDEYGIS", "CDR-H2": "VIYADGQRTFYADSVK", "CDR-H3": "GSHAGTFDL", "Kd (apparent)": "240 pM", "detected": "6 of 6", "signal with controls": "0 of 18"}
{"CDR-H1": "GFDLNEYGIS", "CDR-H2": "VIYADGKRTFYADSVK", "CDR-H3": "GKNAGTILV", "Kd (apparent)": "50 nM", "detected": "1 of 6", "signal with controls": "0 of 18"}
{"CDR-H1": "GFHLNSYGIS", "CDR-H2": "VIYSDGRRTFYADDVK", "CDR-H3": "GQAAGTFDS", "Kd (apparent)": "70 nM", "detected": "6 of 6", "signal with controls": "0 of 18"}
{"CDR-H1": "GRTLNSYGIS", "CDR-H2": "VIYSDGRRTFYDDSVK", "CDR-H3": "GQLAGTFDQ", "Kd (apparent)": "6.9 nM", "detected": "6 of 6", "signal with controls": "0 of 18"}
{"CDR-H1": "GFQLNQYGIS", "CDR-H2": "VIYSDGRRTFYADSVK", "CDR-H3": "GRAAGTFDS", "Kd (apparent)": "21 nM", "detected": "6 of 6", "signal with controls": "0 of 18"}
{"CDR-H1": "GFDLNEYGIS", "CDR-H2": "VIYADGQRTFYADSVK", "CDR-H3": "GNEAGTFDM", "Kd (apparent)": "nd", "detected": "0 of 6", "signal with controls": "0 of 18"}
{"CDR-H1": "MFDLNSYGIS", "CDR-H2": "VIYSDGRRTFYIDSVK", "CDR-H3": "GRTAGTFDS", "Kd (apparent)": "20 nM", "detected": "5 of 6", "signal with controls": "0 of 18"}
{"CDR-H1": "GFDLNEYGIS", "CDR-H2": "VIYADGVRTAYADDVK", "CDR-H3": "GEVAGTFDQ", "Kd (apparent)": "410 pM", "detected": "6 of 6", "signal with controls": "1 of 18"}
{"CDR-H1": "GFTLNSYGIS", "CDR-H2": "VIYSDGRRVFYGDFVK", "CDR-H3": "GRSAGTFDS", "Kd (apparent)": "nd", "detected": "0 of 6", "signal with controls": "0 of 18"}
{"CDR-H1": "GFTLNEYGIS", "CDR-H2": "VIYSDGNRTFYGDSVK", "CDR-H3": "GRAAVTFGQ", "Kd (apparent)": "nd", "detected": "0 of 6", "signal with controls": "0 of 18"}

Source: Li et al. 2023 (doi:10.1038/s41467-023-39022-2), MIT Lincoln Laboratory and A-Alpha Bio; data file from the FLAb repository.